## Reported properties for industrial, environmental and drug-like chemicals

The melting point is given in degrees Celsius.
Boiling points are in °C, nominally at 760 mmHg.
The octanol-water partition coefficient is given as log10; larger values mean a more lipophilic compound.
Solubility in water is on a log10 molar scale (set defined at 25 °C).
Vapor pressures (log10 mmHg) refer to near room temperature, 15 to 30 °C; higher is more volatile.
Intrinsic clearance (human, µL/min per 10^6 hepatocytes): higher is faster turnover, and 0 stands for none detected.
"n/a" marks a cell with nothing listed here.

{"smiles": "Cc1nc2c(O)cccn2c(=O)c1CCO", "MP (°C)": "147.5", "log Kow": "0.19", "log S (log10 mol/L)": "-2.09", "log vapor pressure (log10 mmHg)": "-6.298"}
{"smiles": "CN(C)CCN(C)CCN(C)C", "log Kow": "0.005", "log vapor pressure (log10 mmHg)": "-0.694"}
{"smiles": "CCCCCCCC(=O)OC", "log Kow": "3.32", "hepatic Clint (µL/min/10^6 cells)": "817"}
{"smiles": "CCOC(=O)CN(CC(=O)OCC)C(=O)Oc1c(C#N)c(C(=O)OC2C(C(C)(C)C)CC(C)CC2C(C)(C)C)c2[nH]c(-c3ccc(C(C)(C)C)cc3)nn12", "stereo": "stereo not given", "MP (°C)": "245.5", "log Kow": "7.7", "log S (log10 mol/L)": "-6.971"}
{"smiles": "N#Cc1ccccc1N=C(O)c1snc(Cl)c1Cl", "MP (°C)": "194.4", "log S (log10 mol/L)": "-5.775", "log vapor pressure (log10 mmHg)": "-8.752"}
{"smiles": "C[N+](C)=CCC(O)CC(=N)[O-].Cl", "stereo": "stereo not given", "MP (°C)": "207.1", "log Kow": "-4", "log vapor pressure (log10 mmHg)": "-6.305"}
{"smiles": "C=C(C)C(=O)NCOC", "log Kow": "-0.18", "log vapor pressure (log10 mmHg)": "-1.624"}
{"smiles": "CCC=CCCCCCCCC(=O)OC", "boiling point (°C)": "267.9", "log S (log10 mol/L)": "-5.31", "log vapor pressure (log10 mmHg)": "-2.129"}
{"smiles": "Brc1cnc2[nH]ccc2c1", "log Kow": "1.8", "log S (log10 mol/L)": "-3.523"}
{"smiles": "O=C1CCC(=O)[C@H]2[C@@H]1[C@H]1CC[C@@H]2C1=C(Cl)Cl", "MP (°C)": "175.5", "log Kow": "2.2", "log S (log10 mol/L)": "-4.474", "log vapor pressure (log10 mmHg)": "-6.72"}
{"smiles": "CCN(CC)c1ccc2cc(-c3nc4cc(S(N)(=O)=O)ccc4o3)c(=O)oc2c1", "log Kow": "2.246", "log S (log10 mol/L)": "-7.831"}
{"smiles": "OC(Cn1ccnc1)c1ccc(Cl)cc1Cl", "stereo": "stereo not given", "log Kow": "2.335", "log S (log10 mol/L)": "-3.38", "log vapor pressure (log10 mmHg)": "-8.914"}
{"smiles": "NCc1ccc(CN)cc1", "boiling point (°C)": "276.7", "log Kow": "0.56", "log vapor pressure (log10 mmHg)": "-2.699"}
{"smiles": "CC(=O)/C=C(\\C)[C@@]12CCC[C@@]3(C)[C@@H]1CC[C@@]3(C)C2", "MP (°C)": "-22", "boiling point (°C)": "340", "log Kow": "5.56", "log S (log10 mol/L)": "-4.999", "log vapor pressure (log10 mmHg)": "-5.634"}
{"smiles": "CCCCCCOC(=O)CC(CC(=O)OCCCCCC)(OC(=O)CCC)C(=O)OCCCCCC", "log Kow": "4", "log S (log10 mol/L)": "-5.926"}
{"smiles": "CC(C)C(=O)C(C(O)=Nc1ccccc1)C(C(=O)c1ccc(F)cc1)c1ccccc1", "stereo": "stereo not given", "log Kow": "4.656", "log S (log10 mol/L)": "-6.381"}
{"smiles": "O=[N+]([O-])c1ccc(N=Nc2c(O)ccc3ccccc23)c([N+](=O)[O-])c1", "log Kow": "2.45", "log S (log10 mol/L)": "-7.73"}
{"smiles": "CCCCCCCCCCCC(=O)OCC(C)(C)C=NCC1(C)CC(N=CC(C)(C)COC(=O)CCCCCCCCCCC)CC(C)(C)C1", "stereo": "stereo not given", "MP (°C)": "-39", "log vapor pressure (log10 mmHg)": "-5.058"}
{"smiles": "CCCCCCCC[N+](C)(C)CCCCCCCC.[Cl-]", "log Kow": "1.2", "log S (log10 mol/L)": "-3.088", "log vapor pressure (log10 mmHg)": "-4.913"}
{"smiles": "CCCCc1nc(Cl)c(CO)n1Cc1ccc(-c2ccccc2-c2nnn(C(c3ccccc3)(c3ccccc3)c3ccccc3)n2)cc1", "MP (°C)": "158.5", "log Kow": "3.9", "log S (log10 mol/L)": "-6.461", "log vapor pressure (log10 mmHg)": "-7.084"}
{"smiles": "Cc1nc2n(c(=O)c1CCN1CCC(c3noc4cc(F)ccc34)CC1)CCC[C@H]2O", "log Kow": "1.8", "log S (log10 mol/L)": "-3.157"}

Excerpt, the final 3 entries:

| compound | MP (°C) | boiling point (°C) | log Kow | log S (log10 mol/L) | log vapor pressure (log10 mmHg) | hepatic Clint (µL/min/10^6 cells) |
|---|---|---|---|---|---|---|
| CCCCCCCC[N+](C)(C)CCCCCCCC.[Cl-] | n/a | n/a | 1.2 | -3.088 | -4.913 | n/a |
| CCCCc1nc(Cl)c(CO)n1Cc1ccc(-c2ccccc2-c2nnn(C(c3ccccc3)(c3ccccc3)c3ccccc3)n2)cc1 | 158.5 | n/a | 3.9 | -6.461 | -7.084 | n/a |
| Cc1nc2n(c(=O)c1CCN1CCC(c3noc4cc(F)ccc34)CC1)CCC[C@H]2O | n/a | n/a | 1.8 | -3.157 | n/a | n/a |

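These are experimental values that the OPERA curators gathered from public databases to train and test their QSAR models. A listed value is a point estimate from one report or more. How each value was measured is not recorded, so precision varies. A value may pool stereoisomers or salt forms, and the file does not say which form was measured. Unmarked limits or estimates from the upstream databases cannot be ruled out.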

Values as listed in the OPERA 2.9 repository of K. Mansouri.